Laboratory results taken from paper PMC4207771, “Identification and Characterization of Novel Renal Sensory Receptors” (PLoS ONE, 2014).

Target: T1, Olfr31 (Mus musculus, UniProt Q3KPA7)
T1 construct: expressed in transfected cells; host or cells: HEK293T, co-transfected with RTP1S
T1 sequence (Q3KPA7 1-317): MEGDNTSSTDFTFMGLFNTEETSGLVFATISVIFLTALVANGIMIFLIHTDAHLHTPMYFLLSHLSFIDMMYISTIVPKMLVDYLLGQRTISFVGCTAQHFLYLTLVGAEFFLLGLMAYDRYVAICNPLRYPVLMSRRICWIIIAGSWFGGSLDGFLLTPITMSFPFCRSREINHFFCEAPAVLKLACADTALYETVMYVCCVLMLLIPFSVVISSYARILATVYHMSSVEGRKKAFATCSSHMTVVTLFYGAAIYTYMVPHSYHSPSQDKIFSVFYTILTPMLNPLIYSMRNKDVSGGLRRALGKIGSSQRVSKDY
Assay: dual-luciferase (cAMP/CREB reporter) ligand screen, Olfr31 in HEK293T cells
Assay type: cell-based
Design: key: ‘+’ or ‘–‘ in each column indicates if the olfactory receptor responded or had no effect to that specific chemical; -: ‘+’ or ‘–‘ in each column indicates if the olfactory receptor responded or had no effect to that specific chemical
Settings: chemicals tested individually, screened at 500uM (* also at 100uM)

| SMILES | Olfr31 response in dual-luciferase assay |
| --- | --- |
| CCCC(CCC)C(=O)O [valproate, reference compound] | - |
| C[C@]12CC[C@@H]3c4ccc(O)cc4CC[C@H]3[C@@H]1CC[C@@H]2O [estradiol, reference compound] | - |
